Ab-14 light chain CDR variants: yeast mating affinities

Antigen: PDVDLGDISGINAS, a 14-residue peptide of the SARS-CoV-2 spike HR2 region.

Ab-14 is the parent antibody, in scFv form: VH, then three GGGGS repeats, then VL. The heavy chain is unchanged in all variants.
VH: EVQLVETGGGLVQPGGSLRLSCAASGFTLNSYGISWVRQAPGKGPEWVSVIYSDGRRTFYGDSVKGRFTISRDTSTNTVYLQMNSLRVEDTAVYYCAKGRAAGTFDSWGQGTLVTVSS
VL: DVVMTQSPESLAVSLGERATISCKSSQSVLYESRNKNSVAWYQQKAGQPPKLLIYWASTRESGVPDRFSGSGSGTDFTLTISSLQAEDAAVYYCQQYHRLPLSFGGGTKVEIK

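The parent was found by panning a naive human phage display library on the peptide. Variants in AAYL50 differ from the parent at up to three CDR positions; double and triple changes were sampled at random. The scFvs were displayed on barcoded MATa yeast, the peptide on MATalpha yeast. Mating (16 h, 30 °C) was followed by selection of diploids and sequencing of their barcodes. Scores were corrected for input abundance and mapped to Kd with protein pairs of known affinity run in the same pool. Mating was done three times.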

Changes read parent residue, position, new residue, counted from the first residue of the VL shown.
Every variant below is changed at P101 of the VL (sequential numbering).
Values are apparent Kd, the geometric mean of the replicates that gave a signal; lower means stronger binding.
"no signal" marks a missing value. The strain was present, yet no cells mated with the target were sequenced in any replicate, which points to weak or no binding.
Three control strains display no target. For library AAYL50, 18% of the pairings with them gave a signal, with a median of 15 µM and one signal in twenty below 970 nM, so weak values seen in few replicates may be background. The control count says in how many pairings with the empty strains this scFv gave a signal.

changes	Kd (apparent)	replicates with signal	signal with controls
A57G+E61L+P101F	470 nM	3 of 3	1 of 9
P101T	3.2 nM	3 of 3	1 of 9
S28N+N35S+P101K	no signal	0 of 3	0 of 9
Y31V+S33A+P101I	no signal	0 of 3	0 of 9
S28I+S38Y+P101E	no signal	0 of 3	5 of 9
K36V+A40F+P101T	no signal	0 of 3	0 of 9
N37P+P101R+S103E	12 µM	1 of 3	2 of 9
Y31N+Y97G+P101I	17 nM	3 of 3	3 of 9
N35L+R60L+P101E	830 µM	2 of 3	2 of 9
L30S+E61H+P101W	110 nM	3 of 3	2 of 9
V29R+V39G+P101S	5.2 µM	1 of 3	4 of 9
S33R+S62T+P101T	1.0 µM	1 of 3	1 of 9
L30G+K36V+P101Y	6.5 nM	3 of 3	3 of 9
Q27E+E61M+P101M	no signal	0 of 3	1 of 9
S28R+N35P+P101N	5.4 µM	2 of 3	1 of 9
K24M+S38R+P101Y	36 µM	1 of 3	2 of 9
K36G+W56H+P101E	2.5 nM	3 of 3	0 of 9
K36D+Q95K+P101C	no signal	0 of 3	3 of 9
K36L+E61I+P101E	6.5 nM	3 of 3	2 of 9
V39F+L100Y+P101R	8.2 µM	1 of 3	6 of 9
R60Y+H98L+P101V	27 µM	2 of 3	4 of 9
K36L+L100R+P101V	140 µM	1 of 3	3 of 9
Q27M+L30Q+P101N	8.0 nM	3 of 3	0 of 9
Y31L+H98Q+P101M	3.5 nM	3 of 3	0 of 9
E32Y+R34V+P101G	92 nM	3 of 3	2 of 9
K36P+T59G+P101E	3.2 µM	1 of 3	2 of 9
Q27G+V39Q+P101V	11 µM	2 of 3	4 of 9
R34Y+W56R+P101I	6.9 µM	1 of 3	1 of 9
S28V+R99V+P101M	1.1 µM	3 of 3	1 of 9
A40W+H98R+P101M	1.6 µM	1 of 3	2 of 9
W56K+Q95D+P101K	no signal	0 of 3	1 of 9
A57G+P101V+S103C	16 nM	3 of 3	0 of 9
R34C+Y97M+P101V	no signal	0 of 3	0 of 9
V29P+E61L+P101K	29 nM	3 of 3	2 of 9
N37V+P101A+L102E	no signal	0 of 3	0 of 9
N37C+S58F+P101Q	no signal	0 of 3	1 of 9
V29R+S62K+P101N	no signal	0 of 3	0 of 9
S28R+N35F+P101S	no signal	0 of 3	0 of 9
Y97A+P101R	6.6 nM	3 of 3	1 of 9
S26A+S62A+P101S	180 µM	1 of 3	1 of 9
S33Y+Y97N+P101M	no signal	0 of 3	1 of 9
S26W+P101F	no signal	0 of 3	0 of 9
S38C+V39W+P101T	no signal	0 of 3	2 of 9
W56R+R99Y+P101A	no signal	0 of 3	1 of 9
V29Y+N35G+P101C	13 µM	1 of 3	1 of 9
R34D+S62T+P101I	no signal	0 of 3	0 of 9
S25N+S62G+P101R	4.8 µM	3 of 3	4 of 9
S58G+Q96H+P101E	no signal	0 of 3	0 of 9
S62H+P101A	no signal	0 of 3	1 of 9
S62R+H98R+P101C	13 nM	3 of 3	0 of 9
S25Y+S58N+P101G	no signal	0 of 3	1 of 9
N35S+T59H+P101W	23 nM	3 of 3	0 of 9
V29N+L100A+P101W	29 nM	3 of 3	6 of 9
R34A+A40E+P101K	no signal	0 of 3	1 of 9
V39Q+T59C+P101W	no signal	0 of 3	2 of 9
Q27L+W56T+P101Y	14 nM	3 of 3	3 of 9
W56D+P101S	3.6 nM	3 of 3	3 of 9
N37A+Q96V+P101W	190 nM	3 of 3	3 of 9
V29L+E32F+P101F	no signal	0 of 3	1 of 9
S25W+S26D+P101V	no signal	0 of 3	0 of 9
R34P+S58H+P101V	43 µM	2 of 3	0 of 9
K36F+N37A+P101I	40 µM	2 of 3	0 of 9
K24M+P101M	no signal	0 of 3	2 of 9
V39E+T59P+P101I	120 µM	1 of 3	2 of 9
L30I+P101V+L102S	no signal	0 of 3	0 of 9
K36I+S58N+P101I	no signal	0 of 3	2 of 9
N35Y+V39H+P101D	2.3 µM	1 of 3	2 of 9
R34Q+W56K+P101Y	2.1 nM	3 of 3	1 of 9
S33W+P101I+S103E	no signal	0 of 3	0 of 9
S28L+Y97Q+P101D	50 nM	3 of 3	7 of 9
N37D+P101D	36 µM	3 of 3	8 of 9
S33D+P101E+L102E	2.4 nM	3 of 3	5 of 9
Q96G+P101L+L102S	24 µM	1 of 3	0 of 9
H98K+R99Y+P101V	200 nM	1 of 3	0 of 9
E61T+S62M+P101W	17 nM	3 of 3	2 of 9
S38T+R99S+P101V	86 µM	1 of 3	3 of 9
S33F+P101V	1.4 µM	3 of 3	2 of 9
Y97E+H98I+P101Q	16 nM	3 of 3	5 of 9

From the list, the first 5 with no signal in any replicate:

{"changes": "S28N+N35S+P101K", "Kd (apparent)": "no signal", "replicates with signal": "0 of 3", "signal with controls": "0 of 9"}
{"changes": "Y31V+S33A+P101I", "Kd (apparent)": "no signal", "replicates with signal": "0 of 3", "signal with controls": "0 of 9"}
{"changes": "S28I+S38Y+P101E", "Kd (apparent)": "no signal", "replicates with signal": "0 of 3", "signal with controls": "5 of 9"}
{"changes": "K36V+A40F+P101T", "Kd (apparent)": "no signal", "replicates with signal": "0 of 3", "signal with controls": "0 of 9"}
{"changes": "Q27E+E61M+P101M", "Kd (apparent)": "no signal", "replicates with signal": "0 of 3", "signal with controls": "1 of 9"}

From the AlphaSeq antibody data of Engelhart et al. 2022 (doi:10.1038/s41597-022-01779-4), copy in the FLAb collection.